Laboratory results published in PMC8906351 (Pharmaceutical research, 2021).

Test system: [^14C]phenytoin efflux across the rat BBB
Assay: BEI inhibition study: pre-administration of compounds into rat Par2 region
Format: in vivo
Conditions: 30 min

dehydroepiandrosterone sulfate [DHEAS]
effect of pre-administration on [14C]phenytoin BEI (in words) (20 mM desipramine, probenecid, MK-571, 5 mM quinidine, 4 mM verapamil, 500 μM prazosin, 10 mM methotrexate, DHEAS, PSC833): not significantly altered
% of Control (compound 10 mM pre-administered): 121 ± 18%
BEI (%) (compound 10 mM pre-administered, control 64.1 ± 12.9): 77.9 ± 11.3%
